The chains behind the UniProt entries cited, without tags or fusion partners.
UniProt P21397, whole entry: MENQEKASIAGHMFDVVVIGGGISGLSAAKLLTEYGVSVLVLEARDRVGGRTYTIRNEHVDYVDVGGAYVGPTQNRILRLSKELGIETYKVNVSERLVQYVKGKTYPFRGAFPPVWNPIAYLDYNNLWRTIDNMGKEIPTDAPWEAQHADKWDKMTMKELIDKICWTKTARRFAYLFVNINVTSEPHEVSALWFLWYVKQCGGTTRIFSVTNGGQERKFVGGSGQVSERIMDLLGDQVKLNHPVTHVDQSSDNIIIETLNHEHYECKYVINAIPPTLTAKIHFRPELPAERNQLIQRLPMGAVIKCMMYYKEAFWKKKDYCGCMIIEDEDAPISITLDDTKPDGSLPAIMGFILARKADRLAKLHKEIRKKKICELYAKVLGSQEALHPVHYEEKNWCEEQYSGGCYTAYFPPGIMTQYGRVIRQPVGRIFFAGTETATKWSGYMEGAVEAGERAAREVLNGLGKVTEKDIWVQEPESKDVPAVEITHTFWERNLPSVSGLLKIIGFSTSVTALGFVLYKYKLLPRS
UniProt P27338, whole entry: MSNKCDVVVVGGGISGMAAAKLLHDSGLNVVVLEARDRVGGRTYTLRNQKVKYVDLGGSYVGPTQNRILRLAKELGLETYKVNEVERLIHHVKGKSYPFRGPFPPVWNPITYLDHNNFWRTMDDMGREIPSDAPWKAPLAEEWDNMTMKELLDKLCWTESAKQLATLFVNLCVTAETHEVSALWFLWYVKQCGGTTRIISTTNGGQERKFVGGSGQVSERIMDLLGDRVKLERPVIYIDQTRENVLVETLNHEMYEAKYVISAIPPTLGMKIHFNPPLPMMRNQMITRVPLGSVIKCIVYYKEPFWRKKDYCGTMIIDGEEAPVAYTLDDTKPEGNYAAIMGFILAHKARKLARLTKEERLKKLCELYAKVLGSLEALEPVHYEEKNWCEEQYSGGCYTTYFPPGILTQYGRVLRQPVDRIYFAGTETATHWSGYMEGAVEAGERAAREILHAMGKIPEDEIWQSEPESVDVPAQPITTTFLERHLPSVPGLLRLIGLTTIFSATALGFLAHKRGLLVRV

In BindingDB's records for doi:10.1021/cb500018s (Johns Hopkins University, 2014):

Columns and labels:
[1] = biological target: Amine oxidase [flavin-containing] A (Homo sapiens, UniProt P21397); assay: MAO-A/B Activity and Inhibition Assay; conditions: pH 7.5
Protocol: (§1) Reactions (100 µL) were initiated by the addition of 2 µL MAO-A/B (final concentrations were 100-200 nM and 0.837 µM for MAO-A and MAO-B, respectively). The reaction mixtures contained 50 mM HEPES (pH 7.5), 0.1 mM 4-aminoantipyrine, 1 mM 3,5-dichloro-2-hydroxybenzenesulfonic acid, 0.04 mg/mL horseradish peroxidase, and appropriate concentration of buffered substrate (tyramine). Absorbance changes were measured at 515 nm.

[2] = biological target: Amine oxidase [flavin-containing] B (Homo sapiens, UniProt P27338); assay: MAO-A/B Activity and Inhibition Assay; conditions: pH 7.5
Protocol: as §1

- Ki [1]: 820 nM
- Ki [2]: 3900 nM
Compound: NNCCc1ccccc1
